Experimental findings from ChEMBL document CHEMBL5543134, “Channeling Nicotinamide Phosphoribosyltransferase (NAMPT) to Address Life and Death” (J Med Chem, 2024) are described below.

A short description of the series: in vivo. The conditions noted are these: rat, po.

In general, bioavailability refers to dose-corrected exposure relative to a reference, in per cent. Higher therefore signals much systemic uptake. Take `N#Cc1cc(-c2ccnc(Nc3ccc4c(c3)CC(=O)N4)n2)ccc1N1CCCC1`: the bioavailability was 47%.
